Experiments:
mouse GLP1R = target: T1, mouse GLP1R (Mus musculus, UniProt O35659); assay: In vitro potency, mouse GLP1R activation (receptor-mediated cAMP synthesis); type: cell-based; conditions: read-out: In Vitro Potency GLP1R EC50, Mouse; Table 12
T1 sequence (O35659 22-463): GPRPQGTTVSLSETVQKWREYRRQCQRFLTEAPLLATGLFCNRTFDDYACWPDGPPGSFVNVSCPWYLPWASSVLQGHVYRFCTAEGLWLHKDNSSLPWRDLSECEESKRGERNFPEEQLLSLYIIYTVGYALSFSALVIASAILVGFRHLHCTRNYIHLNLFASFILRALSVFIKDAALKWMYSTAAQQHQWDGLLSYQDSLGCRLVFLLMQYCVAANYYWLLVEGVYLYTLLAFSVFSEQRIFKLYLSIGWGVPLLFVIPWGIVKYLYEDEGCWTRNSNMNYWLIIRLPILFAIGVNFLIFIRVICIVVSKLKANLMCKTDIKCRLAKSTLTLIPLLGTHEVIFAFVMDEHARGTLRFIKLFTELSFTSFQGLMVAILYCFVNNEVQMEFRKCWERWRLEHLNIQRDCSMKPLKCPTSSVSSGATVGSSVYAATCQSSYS
Protocol: (§1) GLP-1R-CRE or HEK293-GIPR-CRE cells were seeded in 384-well plates at a density of 5000 cells per well and cultured for 18 h in DMEM with 10% FBS at 37° C. and 5% CO2. Cells were treated with peptides in a dose dependent manner for 24 h, and receptor activation was reported by luminescence intensities, using One-Glo (Promega, WI) luciferase reagent following manufacturer's instruction. The EC50 of each peptide was determined using GraphPad Prism 6 software (GraphPad, San Diego, CA). Results are depicted in FIGS. 6A-6B, FIGS. 7A-7B, FIGS. 8A-8B, FIGS. 9A-9B, and Tables 7-12. Measurements of peptide conjugate potency were expressed as half maximal effective concentration (EC50) values.

The chains behind the UniProt entries cited, without tags or fusion partners. Residues count along the entry.
UniProt F8V479, 24-463: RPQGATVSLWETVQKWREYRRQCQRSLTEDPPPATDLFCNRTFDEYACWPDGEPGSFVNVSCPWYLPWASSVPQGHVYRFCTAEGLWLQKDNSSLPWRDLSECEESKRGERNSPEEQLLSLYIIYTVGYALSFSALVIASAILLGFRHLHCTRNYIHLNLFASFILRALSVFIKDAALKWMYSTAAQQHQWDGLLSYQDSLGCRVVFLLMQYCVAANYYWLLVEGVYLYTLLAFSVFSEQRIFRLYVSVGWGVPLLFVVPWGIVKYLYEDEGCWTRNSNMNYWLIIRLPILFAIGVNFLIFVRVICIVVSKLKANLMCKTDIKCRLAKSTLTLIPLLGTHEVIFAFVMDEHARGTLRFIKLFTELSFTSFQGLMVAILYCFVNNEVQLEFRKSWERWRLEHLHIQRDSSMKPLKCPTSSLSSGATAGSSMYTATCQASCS

dog GLP1R = target: T2, dog GLP1R (Canis lupus familiaris, UniProt A0A8I3NUR9); assay: In vitro potency, dog GLP1R activation (receptor-mediated cAMP synthesis); type: cell-based; conditions: read-out: In Vitro Potency GLP1R EC50, Dog; Table 12
T2 sequence (A0A8I3NUR9 1-464): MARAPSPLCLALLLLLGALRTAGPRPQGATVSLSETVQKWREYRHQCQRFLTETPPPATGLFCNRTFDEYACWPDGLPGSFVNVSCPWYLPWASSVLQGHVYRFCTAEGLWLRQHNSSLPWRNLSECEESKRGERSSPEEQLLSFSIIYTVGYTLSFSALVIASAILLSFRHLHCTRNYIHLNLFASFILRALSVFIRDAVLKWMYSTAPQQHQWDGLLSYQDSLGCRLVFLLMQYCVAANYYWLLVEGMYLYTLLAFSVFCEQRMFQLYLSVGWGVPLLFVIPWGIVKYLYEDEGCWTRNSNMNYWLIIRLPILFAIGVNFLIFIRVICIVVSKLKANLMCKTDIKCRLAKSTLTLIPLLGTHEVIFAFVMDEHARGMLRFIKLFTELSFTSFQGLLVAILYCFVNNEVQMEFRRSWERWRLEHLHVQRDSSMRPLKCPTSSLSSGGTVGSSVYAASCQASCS
Protocol: as §1

[1] = semaglutide; cited from earlier work
cynomolgous monkey GLP1R = cynomolgous monkey GLP1R (Macaca fascicularis, UniProt F8V479); assay: In vitro potency, cynomolgous monkey GLP1R activation (receptor-mediated cAMP synthesis); type: cell-based; conditions: read-out: In Vitro Potency GLP1R EC50, Cyno; Table 12
Protocol: as §1

dog GIPR = target: T3, dog GIPR (Canis lupus familiaris, UniProt A0A8I3MPG1); assay: In vitro potency, dog GIPR activation (receptor-mediated cAMP synthesis); type: cell-based; conditions: read-out: In Vitro Potency GIPR EC50, Dog; Table 12
T3 sequence (A0A8I3MPG1 24-449): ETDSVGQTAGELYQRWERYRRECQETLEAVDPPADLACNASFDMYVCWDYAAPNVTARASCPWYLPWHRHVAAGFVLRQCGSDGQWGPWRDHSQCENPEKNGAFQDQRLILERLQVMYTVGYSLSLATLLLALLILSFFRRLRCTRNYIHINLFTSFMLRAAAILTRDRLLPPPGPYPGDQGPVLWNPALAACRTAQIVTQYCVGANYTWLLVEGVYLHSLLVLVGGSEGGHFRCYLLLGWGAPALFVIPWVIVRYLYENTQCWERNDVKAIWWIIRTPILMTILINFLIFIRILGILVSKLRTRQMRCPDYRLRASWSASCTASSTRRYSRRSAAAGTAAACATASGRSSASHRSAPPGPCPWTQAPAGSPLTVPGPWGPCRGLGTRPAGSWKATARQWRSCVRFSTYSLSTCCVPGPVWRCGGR
Protocol: as §1

human GIPR = target: T4, human GIPR (Homo sapiens, UniProt P48546); assay: In vitro receptor activation reporter assay (CRE-Luc, HEK293-GIPR-CRE cells; receptor-mediated cAMP synthesis); type: cell-based; conditions: read-out: In Vitro Potency GIPR EC50, No Serum, Table 11
T4 construct: expressed in transfected cells; host or cells: HEK293 (CRE-HEK293, HEK293-GIPR-CRE)
T4 sequence (P48546 22-466): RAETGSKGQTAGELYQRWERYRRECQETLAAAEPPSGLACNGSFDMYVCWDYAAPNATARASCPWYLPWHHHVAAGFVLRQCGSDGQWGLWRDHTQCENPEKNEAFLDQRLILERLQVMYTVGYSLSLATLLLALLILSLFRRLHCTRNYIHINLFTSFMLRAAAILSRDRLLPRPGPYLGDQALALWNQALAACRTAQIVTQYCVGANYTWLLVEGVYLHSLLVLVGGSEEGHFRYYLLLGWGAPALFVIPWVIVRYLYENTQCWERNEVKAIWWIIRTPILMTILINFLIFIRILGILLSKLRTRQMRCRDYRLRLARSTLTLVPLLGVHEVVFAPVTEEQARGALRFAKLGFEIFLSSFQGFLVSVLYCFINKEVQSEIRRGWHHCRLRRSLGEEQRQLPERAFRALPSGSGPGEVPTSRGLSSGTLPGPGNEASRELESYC

Semaglutide [reference compound]
EC50 (mouse GLP1R): 100 pM
EC50 (dog GLP1R): 670 pM
rodent half-life [1]: ~8 h
EC50 (cynomolgous monkey GLP1R): 130 pM

Tirzepatide [reference compound]
EC50 (dog GIPR): 100 pM
EC50 (human GIPR): 6 pM
